Test system: Aedes aegypti mosquitoes
Assay: Topical bioassay on adult female Aedes aegypti mosquitoes (knockdown 1 h, mortality 24 h; Colby calculation for combinations)
Type: in vivo
Conditions: single active, 3%; listed as 7,8-Dihydo-α-ionone
Excerpt: Components of a composition can have a synergistic or additive effect on insecticidal activity. Components have an additive effect when the effect of the combination is equal to the sum of the effects of each individual component. In contrast, components have a synergistic effect when the effect of the combination exceeds the sum of the effects of the components when applied individually. The effect (E) of a combination of two compounds may be calculated using the Colby formula (1) (S. R. Colby, “Calculating Synergistic and Antagonistic Responses of Herbicide Combinations”, Weeds 1967, 15, 20-22):
If the actual insecticidal kill rate is the calculated value (E), then the action of the combination is additive. If the actual insecticidal kill rate exceeds the calculated value (E), then the action of the combination is super-additive, that is, a synergistic effect is present. If the insecticidal kill rate is lower than the calculated value (E), then the action of the combination is considered antagonistic. […]
The condition of the mosquitoes in each cup was recorded at one hour and 24 hours after initial treatment. […] The percent mortality for each treatment was calculated by summing the mortalities of each replicate then calculating the percent dead from the total number of mosquitoes. […]

7,8-dihydro-α-ionone
% MORTALITY AFTER 24 HRS: 50%

Source: patent US10349662B2, “Insecticidal compositions and methods of using the same” (priority 2011, dated 2019)
